## Measured affinities in a library of Ab-14 light chain variants

Antigen: PDVDLGDISGINAS, a 14-residue peptide of the SARS-CoV-2 spike HR2 region.

Ab-14 is the parent antibody, in scFv form: VH, then a (GGGGS)3 linker, then VL. The heavy chain is unchanged in all variants.
VH: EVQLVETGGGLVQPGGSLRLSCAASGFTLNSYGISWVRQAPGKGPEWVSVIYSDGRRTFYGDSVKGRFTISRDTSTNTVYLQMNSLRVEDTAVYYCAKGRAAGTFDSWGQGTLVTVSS
VL: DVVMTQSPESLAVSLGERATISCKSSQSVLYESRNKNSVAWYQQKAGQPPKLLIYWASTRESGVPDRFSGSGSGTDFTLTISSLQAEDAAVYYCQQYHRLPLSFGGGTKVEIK

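In library AAYL50, one, two or three CDR residues were substituted; doubles and triples were drawn at random. In AlphaSeq, yeast of one mating type display the scFv and yeast of the other type display the target. Binding brings cells together so that they mate, and sequencing counts the barcode pairs among the diploids. Read counts were normalised to the haploid input and turned into Kd by a linear fit to BCL2-family pairs of known affinity, for each replicate. Each pool was mated in three replicate cultures.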

The parent's light chain CDRs are KSSQSVLYESRNKNSVA, WASTRES, QQYHRLPLS; each variant's own CDRs replace them letter for letter. Scale: log10 of Kd in nM, estimated from mating counts; low values are strong binders. "n.d." marks a missing value. The strain was present, yet no cells mated with the target were sequenced in that replicate, which points to weak or no binding. For reference, the parent read 0.65 as the reference entry and 1.68 as a member of this library.

{"CDR-L1": "KSSQSVLYESRNKNSVV", "CDR-L2": "WASTRES", "CDR-L3": "QQHHRLYLS", "log10 Kd (nM) by replicate": "5.22 n.d. n.d.", "empty controls": "3 of 9 (3.90)"}
{"CDR-L1": "KSSQSVLYESRNKNSVA", "CDR-L2": "QASTRES", "CDR-L3": "QQTHRLPAS", "log10 Kd (nM) by replicate": "n.d. n.d. n.d.", "empty controls": "2 of 9 (4.14)"}
{"CDR-L1": "KSSQSVLYESRNKNSVA", "CDR-L2": "RASTRES", "CDR-L3": "QQYRALPLS", "log10 Kd (nM) by replicate": "1.12 0.97 0.99", "empty controls": "1 of 9 (2.97)"}
{"CDR-L1": "KSSQSNLYESRNKNSVA", "CDR-L2": "WASTRES", "CDR-L3": "QQYHKLDLS", "log10 Kd (nM) by replicate": "2.06 1.67 2.41", "empty controls": "1 of 9 (3.17)"}
{"CDR-L1": "KSSQSVLYESPNKWSVA", "CDR-L2": "WASYRES", "CDR-L3": "QQYHRLPLS", "log10 Kd (nM) by replicate": "0.96 1.01 0.93", "empty controls": "3 of 9 (3.83)"}
{"CDR-L1": "KSSQSVLFESRNKNSVA", "CDR-L2": "WGSTRES", "CDR-L3": "QQYHRMPLS", "log10 Kd (nM) by replicate": "0.96 1.03 1.14", "empty controls": "3 of 9 (4.68)"}
{"CDR-L1": "KSGQSVLYESRNKGSVA", "CDR-L2": "WASTRES", "CDR-L3": "TQYHRLPLS", "log10 Kd (nM) by replicate": "n.d. n.d. n.d.", "empty controls": "0 of 9"}
{"CDR-L1": "KSPQSVLYESRNKGSVA", "CDR-L2": "WASERES", "CDR-L3": "QQYHRLPLS", "log10 Kd (nM) by replicate": "2.40 2.35 2.91", "empty controls": "3 of 9 (4.14)"}
{"CDR-L1": "KESQSVLYESRGKNSVA", "CDR-L2": "WASTRYS", "CDR-L3": "QQYHRLPLS", "log10 Kd (nM) by replicate": "1.83 1.97 1.98", "empty controls": "3 of 9 (4.30)"}
{"CDR-L1": "KSSQSVLGESRNKNSWA", "CDR-L2": "WASTRES", "CDR-L3": "QQYHRWPLS", "log10 Kd (nM) by replicate": "n.d. n.d. n.d.", "empty controls": "0 of 9"}
{"CDR-L1": "KASQSVFYESENKNSVA", "CDR-L2": "WASTRES", "CDR-L3": "QQYHRLPLS", "log10 Kd (nM) by replicate": "0.28 0.77 0.40", "empty controls": "6 of 9 (4.66)"}
{"CDR-L1": "KSSQSVLYESRVKNSVA", "CDR-L2": "WESTRES", "CDR-L3": "QQYHRLPLS", "log10 Kd (nM) by replicate": "3.83 n.d. 4.67", "empty controls": "0 of 9"}
{"CDR-L1": "KSSQEVLYESRNKNSVA", "CDR-L2": "WASTHES", "CDR-L3": "QQSHRLPLS", "log10 Kd (nM) by replicate": "n.d. n.d. n.d.", "empty controls": "1 of 9 (3.49)"}
{"CDR-L1": "KLSQSVLYESRNKNSVA", "CDR-L2": "WASTRES", "CDR-L3": "QQYHRLPLE", "log10 Kd (nM) by replicate": "-0.22 0.13 -0.09", "empty controls": "6 of 9 (4.88)"}
{"CDR-L1": "KSSQSVLYGSRNHNSVA", "CDR-L2": "WASTRES", "CDR-L3": "QQYHRLPAS", "log10 Kd (nM) by replicate": "0.30 0.70 0.48", "empty controls": "0 of 9"}
{"CDR-L1": "KRSQSVLYESRNKNSVA", "CDR-L2": "WASTRES", "CDR-L3": "QTYHRLLLS", "log10 Kd (nM) by replicate": "4.69 3.93 n.d.", "empty controls": "1 of 9 (4.25)"}
{"CDR-L1": "KSSQSVLYESFNKNKVA", "CDR-L2": "WMSTRES", "CDR-L3": "QQYHRLPLS", "log10 Kd (nM) by replicate": "3.00 n.d. n.d.", "empty controls": "3 of 9 (3.69)"}
{"CDR-L1": "KSAQSVLYESRNKNSVA", "CDR-L2": "WASTRED", "CDR-L3": "QWYHRLPLS", "log10 Kd (nM) by replicate": "n.d. n.d. n.d.", "empty controls": "1 of 9 (4.20)"}
{"CDR-L1": "KVSQGVLYESRNKNSVA", "CDR-L2": "WASTTES", "CDR-L3": "QQYHRLPLS", "log10 Kd (nM) by replicate": "1.07 1.11 1.37", "empty controls": "1 of 9 (4.15)"}
{"CDR-L1": "KSSQSVLYESRNKNSVA", "CDR-L2": "WASTRES", "CDR-L3": "QQYHRFPLS", "log10 Kd (nM) by replicate": "5.01 4.39 n.d.", "empty controls": "2 of 9 (2.93)"}
{"CDR-L1": "KSSQSVMYESRIKNSVA", "CDR-L2": "WPSTRES", "CDR-L3": "QQYHRLPLS", "log10 Kd (nM) by replicate": "n.d. n.d. n.d.", "empty controls": "0 of 9"}
{"CDR-L1": "KSSQSVLYESRNKNSVA", "CDR-L2": "WASFRES", "CDR-L3": "QGYHRLPLS", "log10 Kd (nM) by replicate": "n.d. 3.91 n.d.", "empty controls": "1 of 9 (4.33)"}
{"CDR-L1": "KSSQSVLYESRNKNGVA", "CDR-L2": "WASTIES", "CDR-L3": "QQDHRLPLS", "log10 Kd (nM) by replicate": "n.d. n.d. n.d.", "empty controls": "0 of 9"}
{"CDR-L1": "TSSQSQLYESRNKNSVA", "CDR-L2": "WASTRSS", "CDR-L3": "QQYHRLPLS", "log10 Kd (nM) by replicate": "2.51 2.58 2.65", "empty controls": "2 of 9 (3.45)"}
{"CDR-L1": "KSSQSVLYYSRLKNSVA", "CDR-L2": "WASTWES", "CDR-L3": "QQYHRLPLS", "log10 Kd (nM) by replicate": "n.d. n.d. n.d.", "empty controls": "0 of 9"}
{"CDR-L1": "KSSQSVLYEHRNKNSVA", "CDR-L2": "WASTRVS", "CDR-L3": "QQYHRLPLY", "log10 Kd (nM) by replicate": "n.d. n.d. n.d.", "empty controls": "0 of 9"}
{"CDR-L1": "KSSNSVLSESRLKNSVA", "CDR-L2": "WASTRES", "CDR-L3": "QQYHRLPLS", "log10 Kd (nM) by replicate": "0.57 0.63 0.51", "empty controls": "0 of 9"}
{"CDR-L1": "KSSQATLYESRNKNSVA", "CDR-L2": "WASTRES", "CDR-L3": "WQYHRLPLS", "log10 Kd (nM) by replicate": "n.d. 4.15 n.d.", "empty controls": "1 of 9 (3.36)"}

Excerpt, the final 3 entries:

{"CDR-L1": "KSSQSVLYEHRNKNSVA", "CDR-L2": "WASTRVS", "CDR-L3": "QQYHRLPLY", "log10 Kd (nM) by replicate": "n.d. n.d. n.d.", "empty controls": "0 of 9"}
{"CDR-L1": "KSSNSVLSESRLKNSVA", "CDR-L2": "WASTRES", "CDR-L3": "QQYHRLPLS", "log10 Kd (nM) by replicate": "0.57 0.63 0.51", "empty controls": "0 of 9"}
{"CDR-L1": "KSSQATLYESRNKNSVA", "CDR-L2": "WASTRES", "CDR-L3": "WQYHRLPLS", "log10 Kd (nM) by replicate": "n.d. 4.15 n.d.", "empty controls": "1 of 9 (3.36)"}

As a blank, each scFv also met three strains without target: over library AAYL50, 18% of these pairings were detected, typically at 4.19 and seldom below 2.99. The control count says in how many pairings with the empty strains this scFv gave a signal, with their mean in brackets.

From the AlphaSeq antibody data of Engelhart et al. 2022 (doi:10.1038/s41597-022-01779-4), copy in the FLAb collection.